Only a part is listed here, and it is no random draw. Active and inactive are the calls of the source. The call rests on the fitted dose curve; in most records, active means well fitted inhibition curve with a large enough effect; inconclusive means small, poorly fitted or top-dose-only effect; inactive means no such curve, though single readings can be large or run the other way.
molecular target: Thioredoxin reductase 1, cytoplasmic (Rattus norvegicus) (UniProt O89049); experiment: qHTS Assay for Substrates of Mammalian Selenoprotein Thioredoxin Reductase 1 (TrxR1): qHTS; details: purified TrxR1 substrate turnover, NADPH consumption readout; at 114 µM (top of the series); further: nearly all actives have a fitted effect of over 50% in size
On the % scale 0 is the no-effect control and ±100 the full control effect.

By UniProt entry, the sequences of proteins in these tests, tags left out.
UniProt O89049, whole entry: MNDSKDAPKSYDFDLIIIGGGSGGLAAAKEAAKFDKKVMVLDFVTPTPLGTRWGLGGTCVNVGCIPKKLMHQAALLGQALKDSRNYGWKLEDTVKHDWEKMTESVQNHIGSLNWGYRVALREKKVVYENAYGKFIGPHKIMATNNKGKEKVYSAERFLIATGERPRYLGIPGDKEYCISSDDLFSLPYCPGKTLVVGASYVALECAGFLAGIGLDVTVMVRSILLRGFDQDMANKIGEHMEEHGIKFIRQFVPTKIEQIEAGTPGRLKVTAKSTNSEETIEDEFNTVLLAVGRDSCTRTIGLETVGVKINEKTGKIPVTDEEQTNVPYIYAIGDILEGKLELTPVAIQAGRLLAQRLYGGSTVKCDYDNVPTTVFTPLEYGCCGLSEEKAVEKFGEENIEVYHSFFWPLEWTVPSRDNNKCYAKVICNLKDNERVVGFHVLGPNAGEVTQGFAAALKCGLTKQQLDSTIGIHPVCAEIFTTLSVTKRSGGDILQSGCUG

SMILES	activity change, negative = substrate turnover
CCC(=O)N(c1ccccc1)C1(COC)CCN(CCn2nnn(CC)c2=O)CC1	inactive: 3.94%
CCC(=O)N(c1ccccc1)C1(COC)CCN(CCc2cccs2)CC1	inactive: -0.567%

Reference: PubChem BioAssay AID588456 (National Center for Advancing Translational Sciences (NCATS), 2011)
